The numbers were not newly measured in PMC4798892, which cites them from elsewhere.

For data set [1], the target named is Histone H3 (H3T3ph) (Homo sapiens) (UniProt P68431).
The target of data set [2] is Histone H3 (H3K4me0) (Homo sapiens) (UniProt P68431).

With DNMT3A ADD (from UniProt Q9Y6K1), the Kd – broadly, the concentration at which binding is half-saturated – was 59.9 µM in data set [1] and 0.82 µM in data set [2].
